# Measured affinities in a library of Ab-14 heavy chain variants

Reference: Engelhart et al. 2022, doi:10.1038/s41597-022-01779-4. File: FLAb, binding data.

All variants were tested on one target, the spike HR2 peptide PDVDLGDISGINAS (SARS-CoV-2).

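Phage display of a naive human antibody library on the peptide gave the parent. AAYL49 was designed without a model: most single CDR substitutions and a random sample of double and triple ones. Affinity was read by AlphaSeq, a pooled yeast mating assay with surface-displayed partners. The frequency of each diploid, read from paired DNA barcodes, reflects how well the two displayed proteins bind. A regression on co-assayed BCL2-family reference pairs converts the normalised counts of each replicate to an apparent Kd. The assay was run in three technical replicates.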

Parent scFv Ab-14: VH joined to VL by three GGGGS repeats. Changes lie in the heavy chain CDRs alone.
VH: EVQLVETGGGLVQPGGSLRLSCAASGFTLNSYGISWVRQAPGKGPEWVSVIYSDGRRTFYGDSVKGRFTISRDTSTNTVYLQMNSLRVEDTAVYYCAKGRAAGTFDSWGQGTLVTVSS
VL: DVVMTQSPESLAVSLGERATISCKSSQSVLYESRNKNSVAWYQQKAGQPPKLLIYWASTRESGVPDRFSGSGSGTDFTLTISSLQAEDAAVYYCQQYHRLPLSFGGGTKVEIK

The parent's heavy chain CDRs are GFTLNSYGIS, VIYSDGRRTFYGDSVK, GRAAGTFDS; each variant's own CDRs replace them letter for letter.
Affinities are written as log10 Kd with Kd in nM; a lower number is a better binder.
An entry "ND" has no value in the source: the pair was not observed among the diploids in that replicate. This suggests poor binding but is not conclusive.
As a blank, each scFv also met three strains without target: over library AAYL49, 15% of these pairings were detected, typically at 4.06 and seldom below 2.83.
Parent in this assay: reference entry 0.65, copy in this library 4.11 (one replicate of three).

CDR-H1,CDR-H2,CDR-H3,"replicates, log10 nM"
GFTLNSYGTS,VIYSDGRRTFYGDSVK,GRAAGAFDS,ND 3.43 ND
GFTGNSYGIS,VIYSDGRRQFYGDSVK,GRHAGTFDS,3.59 3.26 ND
GFELNSYGIS,NIYSDGRRTFYGDSVK,GRAAGTFDS,ND 4.12 ND
AFTLNMYGIS,QIYSDGRRTFYGDSVK,GRAAGTFDS,ND ND ND
GFTLNSYGIS,VIYSDGRRTIYGDSVS,GRAADTFDS,ND ND ND
GFTLNSYGIS,VIYSDGRRAFHGDSVK,GEAAGTFDS,ND 4.14 ND
DFTLNSYGIS,VIYSDGRRTAYGDSVK,GRAAGTFDS,0.41 0.66 0.47
GFTLNSYGIS,VIYSDNRRTPYGDSVK,GRAAGTFDI,ND ND ND
GFTLNSYGIS,CIYSDGRRTFYEDSVK,GRAAGTFDS,ND ND ND
GFTLNSYVIS,VIYSDGRRTFYGDSPK,GRAAGIFDS,ND ND ND
GETLNSYGIS,VIYSDGRRTPYGDSVK,GNAAGTFDS,ND ND ND
GFVLNSYGII,VIISDGRRTFYGDSVK,GRAAGTFDS,ND 3.38 ND
EFTLNSYGIE,VIYSDGRRTFYRDSVK,GRAAGTFDS,ND ND ND
GFTLNSYGIS,VIYEDIRKTFYGDSVK,GRAAGTFDS,ND 4.70 5.71
NDTLSSYGIS,VIYSDGRRTFYGDSVK,GRAAGTFDS,2.38 2.17 1.66
GFTLNSYGNS,VIYSDGRRNFYGDDVK,GRAAGTFDS,3.94 ND ND
GFTLNSYGIS,VIYSDHRRTFYGDSEK,KRAAGTFDS,ND ND ND
GFTLNSYGIS,VMYSDGRRTVYGDSVK,LRAAGTFDS,ND ND ND
GFTLNSYGIS,VIYSDGRRTFYGDSVK,GRWAGPFDR,ND 4.04 ND
GFTLNSYEIS,VIYSDGRRTFYGDSVK,GRAAGTFFS,3.04 ND 3.14
GFTLNSYGIS,VRYSDGRREFYGWSVK,GRAAGTFDS,ND ND ND
GFTLNSYMIS,RIYSNGRRTFYGDSVK,GRAAGTFDS,ND ND ND
GFTESSYGIS,VIYSDGRRTFYGDSVK,GRAAGTFDH,ND ND ND
GFTANSYEIS,VIYSDQRRTFYGDSVK,GRAAGTFDS,4.46 3.92 ND
TFTLNSYGLS,VIYSDGRRTFYGDSVK,GRAGGTFDS,ND ND ND
GFTLNSYGIS,VIYSDGRRTFYGDSYS,GRAAGTFDD,ND ND ND
GFTLNSYGIR,VICSDGRRTFYGDSHK,GRAAGTFDS,ND 2.75 5.74
GFTLNTYGIS,VIYSDGRRDFYGDSVK,GRAASTFDS,5.35 ND ND
GFTLNSYGIS,VIYSDGRRTFNGMSRK,GRAAGTFDS,ND 3.41 5.16
GFTLNSYGIS,VMYSDGRRTAYGDSEK,GRAAGTFDS,ND ND ND
GFNCNSYGIS,VCYSDGRRTFYGDSVK,GRAAGTFDS,ND 2.64 ND
GFTLNSYGIS,TILSDGSRTFYGDSVK,GRAAGTFDS,3.99 ND ND
GFTLNSYGIS,VLYSQGRRTFYGDSVK,GIAAGTFDS,ND ND 3.70
GFTLNSYNIS,VIYSDGRRTFYGDSQK,GPAAGTFDS,ND ND ND
GFTVNCYGIM,VIYSDGRRTFYGDSVK,GRAAGTFDS,6.03 ND ND
GFTLFSYEIS,VIYSQGRRTFYGDSVK,GRAAGTFDS,ND 3.13 ND
KFTLNSYFIS,VIYSDGRRTFYGDSVK,GRAAGTFDQ,ND ND ND
GFTLNSYMIS,VIYSDGRRTEYGDSVK,GRAAGTFRS,ND ND ND
GFTLNAYGIS,VIYADGRRTFYGDSVK,GRAAGSFDS,1.51 1.73 1.90
YFTLNSYGIS,VIYSLGRRTFYGDSVK,ARAAGTFDS,ND ND ND
GLTLNSYGIS,VIYSDGRRTFRGDSVK,GRAAGTFDS,ND ND 5.51
GFTQNSYGIS,VIYADGRRTFYGDSVK,GDAAGTFDS,0.58 0.89 0.69
GFTLNSYGIS,VRYSDGRRTFIHDSVK,GRAAGTFDS,ND ND ND
GFTSASYGIS,VIYSDGPRTFYGDSVK,GRAAGTFDS,ND ND ND
GFTLNSYGIS,VINSDGRRTFYGDSVK,GRAARTFIS,ND ND ND
GFTINSYGIS,VIYSDMRRTFYGDSVK,GRAAGTFRS,ND ND ND
GFTLNSYFIS,VIYSDMRRTFYGDSVK,GRATGTFDS,ND ND ND
GFTKNSYGIS,VIYSDPRRTFYGDSVK,GRAAGTTDS,5.03 5.32 5.61
GFTLNSYGGS,VIYSDGRRTFYNDSVK,GRAAGTNDS,ND ND ND
GFTLNSYYIS,EIYSDGRRTFYGDSVK,GRAAGTFDF,ND ND ND

Excerpt, the first 7 entries:

| CDR-H1 | CDR-H2 | CDR-H3 | replicates, log10 nM |
|---|---|---|---|
| GFTLNSYGTS | VIYSDGRRTFYGDSVK | GRAAGAFDS | ND 3.43 ND |
| GFTGNSYGIS | VIYSDGRRQFYGDSVK | GRHAGTFDS | 3.59 3.26 ND |
| GFELNSYGIS | NIYSDGRRTFYGDSVK | GRAAGTFDS | ND 4.12 ND |
| AFTLNMYGIS | QIYSDGRRTFYGDSVK | GRAAGTFDS | ND ND ND |
| GFTLNSYGIS | VIYSDGRRTIYGDSVS | GRAADTFDS | ND ND ND |
| GFTLNSYGIS | VIYSDGRRAFHGDSVK | GEAAGTFDS | ND 4.14 ND |
| DFTLNSYGIS | VIYSDGRRTAYGDSVK | GRAAGTFDS | 0.41 0.66 0.47 |